Experimental findings from patent US9169259B2, “Imidazopyridazine compounds” (Hoffmann-La Roche Inc., priority 2011, dated 2015) are described below.

This assay deals with recombinant human SYK360-635 (Homo sapiens (Human), UniProt P43405). The assay is described as follows: SYK kinase assay (33P ATP filtration, IC50 of SYK inhibition). The conditions noted are these: truncated SYK aa 360-635 0.5 nM, ATP 20 μM, peptide 5 μM, 30° C. 15 min; read-out: ENZYME_FILTRATION_IC50. In kind it is biochemical. Here is the method:
Determination of IC50 of Spleen Tyrosine Kinase (SYK) Inhibition:
SYK kinase assay is a standard kinase assay adapted to a 96 well plate format. This assay is performed in 96-well format for IC50 determination with […] which represented 10 half log dilutions and a 40 μL reaction volume. The assay measures the incorporation of radiolabeled ^33P γATP into an N-terminally biotinylated peptide substrate, derived from naturally occurring phosphoacceptor consensus sequence (Biotin-11aa DY*E). Phosphorylated products were detected upon termination of reactions with EDTA and the addition of Streptavidin coated beads.
Assay plates: 96-well MultiScreen 0.65 um filter plates (Millipore Cat. No.: MADVNOB10)
final concentration: 50 mM HEPES pH7.5
BSA: Bovine Serum Albumin Fraction V, fatty acid free (Roche Diagnostics GmbH, Cat. No. 9100221) diluted to a final concentration of 0.1%
Assay Dilution Buffer (ADB): 50 mM HEPES, 0.1 mM EGTA, 0.1 mM Na Vanadate, 0.1 mM β-glycerophosphate, 10 mM MgCl2, 1 mM DTT, 0.1% BSA, pH 7.5
Bead wash buffer: 10 g/L PBS (Phosphate buffered saline) with 2M NaCl+1% phosphoric acid.
DMSO and the mixture was incubated for 10 min at RT.
The kinase reaction was initiated by the addition of 10 μL 4× substrate cocktail containing the DYE peptide substrate [0 or 5 μM], ATP [20 μM] and ^33PγATP [2 μCi/r×n]. After incubation at 30° C. for 15 min, the reaction was terminated by the transfer of 25 μL of the reaction sample to a 96 well 0.65 μm Millipore MADVNOB membrane/plate containing 200 μL 5 mM EDTA and 20% Streptavidine coated beads in PBS.
After the last wash membrane/plates were transferred to an adaptor plate, heat dried for 15 min at 60° C., and 50 μL scintillation cocktail was added to each well and 4 h later the amount of radioactivity was counted in a top counter.
Consider `CC1CCCN1c1cccc(Nc2cc(-c3cccc(C(N)=O)c3)nn3ccnc23)n1` (centres unmarked) [Example I-12, 3-{8-[6-(2-Methyl-pyrrolidin-1-yl)-pyridin-2-ylamino]-imidazo[1,2-b]pyridazin-6-yl}-benzamide], for which the IC50 was found to be 48.6 nM.

Turning to `CC1CCCN1c1cccc(Nc2cc(-c3ccc(C(N)=O)cc3)nn3ccnc23)n1` (centres unmarked) [Example I-17, 4-{8-[6-(2-Methyl-pyrrolidin-1-yl)-pyridin-2-ylamino]-imidazo[1,2-b]pyridazin-6-yl}-benzamide], the IC50 was 33.1 nM. For `C[C@H]1CCCN1c1cccc(Nc2cc(-c3cccc(C(N)=O)c3)nn3ccnc23)n1` [Example I-51, 3-{8-[6-((S)-2-Methyl-pyrrolidin-1-yl)-pyridin-2-ylamino]-imidazo[1,2-b]pyridazin-6-yl}-benzamide], the IC50 was 16 nM.

Consider `CC1CCCN1c1cccc(Nc2cc(-c3cccc(CN4CCCCC4)c3)nn3ccnc23)n1` (centres unmarked) [Example I-69, [6-(2-Methyl-pyrrolidin-1-yl)-pyridin-2-yl]-[6-(3-piperidin-1-ylmethyl-phenyl)-imidazo[1,2-b]pyridazin-8-yl]-amine], for which the IC50 was found to be 599 nM. Consider `CC1CCCN1c1cccc(Nc2cc(-c3ccc(OCCN4CCCCC4)cc3)nn3ccnc23)n1` (centres unmarked) [Example I-89, [6-(2-Methyl-pyrrolidin-1-yl)-pyridin-2-yl]-{6-[4-(2-piperidin-1-yl-ethoxy)-phenyl]-imidazo[1,2-b]pyridazin-8-yl}-amine], for which the IC50 stood at 89.6 nM.
